Target: Orexin receptor type 2 (Homo sapiens, UniProt O43614)
Test: Antagonist activity at human orexin 2 receptor expressed in CHO cells assessed as inhibition of orexin-A-induced calcium mobilization by FLIPR assay
Format: functional, cell-based

The chains behind the UniProt entries cited, without tags or fusion partners.
UniProt O43614, whole entry: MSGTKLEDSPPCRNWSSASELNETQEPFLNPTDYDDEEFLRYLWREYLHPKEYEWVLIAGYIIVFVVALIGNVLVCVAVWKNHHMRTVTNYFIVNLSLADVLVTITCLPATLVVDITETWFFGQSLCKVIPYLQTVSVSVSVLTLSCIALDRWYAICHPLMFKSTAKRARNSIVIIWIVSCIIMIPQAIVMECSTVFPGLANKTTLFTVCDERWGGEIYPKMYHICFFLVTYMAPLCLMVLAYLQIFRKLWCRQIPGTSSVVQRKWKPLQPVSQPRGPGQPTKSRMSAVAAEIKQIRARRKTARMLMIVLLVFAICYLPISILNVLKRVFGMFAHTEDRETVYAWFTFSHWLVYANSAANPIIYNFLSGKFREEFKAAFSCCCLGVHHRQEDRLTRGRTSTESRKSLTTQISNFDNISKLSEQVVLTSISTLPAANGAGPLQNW

`COc1cccc(OC)c1C1CCCC(=O)N1Cc1ccc2ccccc2n1` (racemic) was tested, and the IC50 was 42 nM.

Source: ChEMBL document CHEMBL3112474, “Discovery of substituted lactams as novel dual orexin receptor antagonists. Synthesis, preliminary structure-activity relationship studies and efforts towards improved metabolic stability and pharmacokinetic properties. Part 1” (Bioorg Med Chem Lett, 2014)
